# The entries are a selection whose mix differs from that of the whole data set. Active and inactive are the calls of the source.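 The calls were made as follows: active = mean activity change at or below -40% when tested at 20 µM; inactive = the rest.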
# Assay: detection-step artefacts after finished caspase reaction – biochemical, fluorescence, Rh110, 20 µM, artefact control for Apaf-1 activator project, confirmation (AID 504616)
# Details: quenched caspase reaction, Ex480/Em540, at 20 µM
compound,measurement,value
O=[As](O)(c1ccc(O)cc1)c1ccccc1O,fluorescence interference (activity change),inactive: 7.63%

# Reference: PubChem BioAssay AID504616 (Sanford-Burnham Center for Chemical Genomics, 2011)
